Reference: ChEMBL document CHEMBL5385856, “Novel 1,4,5,6-tetrahydrocyclopenta[d]imidazole-5-carboxamide-based JNK3 inhibitors: Design, synthesis, molecular docking, and therapeutic potential in neurodegenerative diseases” (Eur J Med Chem, 2023)

Assays:
[1] = Selectivity ratio of IC50 for inhibition of JNK1 (unknown origin) to IC50 for inhibition of JNK3 (unknown origin)
[2] = Selectivity ratio of IC50 for inhibition of GSK3beta (unknown origin) to IC50 for inhibition of JNK3 (unknown origin)
[3] = Selectivity ratio of IC50 for inhibition of p38alpha (unknown origin) to IC50 for inhibition of JNK3 (unknown origin)

SMILES | Ratio IC50 [1] | Ratio IC50 [2] | Ratio IC50 [3]
CCOC(=O)C1Cc2nc(-c3ccc4ccccc4c3)n(-c3ccnc(N[C@H]4CCCN(C(=O)C5CC5)C4)n3)c2C1 (stereo not given in full) | 50 | – | –
CCOC(=O)C1Cc2nc(-c3ccc(Cl)c(Cl)c3)n(-c3ccnc(N[C@H]4CCCN(C(=O)C5CC5)C4)n3)c2C1 (stereo not given in full) | 100 | – | –
NC(=O)C1Cc2nc(-c3ccc(Cl)c(Cl)c3)n(-c3ccnc(N[C@@H]4CCCN(C(=O)C5CC5)C4)n3)c2C1 (stereo not given in full) | > 100 | > 100 | > 100
CCOC(=O)C1Cc2nc(-c3ccc(Cl)c(Cl)c3)n(-c3ccnc(N[C@@H]4CCCN(C(=O)C5CC5)C4)n3)c2C1 (stereo not given in full) | 100 | – | –
NC(=O)C1Cc2nc(-c3ccc(Cl)c(Cl)c3)n(-c3ccnc(N[C@H]4CCCN(C(=O)C5CC5)C4)n3)c2C1 (stereo not given in full) | 200 | 10000 | 600
CCOC(=O)C1Cc2nc(-c3ccc4ccccc4c3)n(-c3ccnc(N[C@@H]4CCCN(C(=O)C5CC5)C4)n3)c2C1 (stereo not given in full) | 50 | – | –
